The test system of one series is 4T1 tumors. The series is described as follows: In vivo antitumor effects in 4T1 tumor-bearing Balb/c mice. To be noted: 3 mg/kg (TFA equivalent) IV, 9-day treatment, vs control group. How it is done: Female Balb/c mice (6–12 weeks old, mean weight = 20–25 g) were supplied by the Laboratory Animal Care Facility of the Arabian Gulf University (AGU), Bahrain. All animals were kept under standard conditions, including controlled temperature (25 °C) and a 12 h light/dark cycle, and had free access to food and drinking water ad libitum. All animal experiments were performed based on the rules and regulations of the Arabian Gulf University Animal Care Policy and approved by the Research and Ethics Committee, REC Approval No: G-E001-PI-12/16.
To propagate the tumor, female Balb/c mice (n = 3) were injected with one million 4T1 mammary carcinoma cells bilaterally (right and left side) on the flanks. The tumor was then collected and cut down into small pieces with an average size of 1–3 mm^3 in sterile PBS to sustain tumor viability. Following this, 5 mice of each group were shaved, anesthetized, and inoculated with one small piece of the 4T1 tumor tissue subcutaneously. […] Tumor volume was measured by a manual caliber, and the volume was estimated by using the formula:V (mm^3) = ((transverse section (W)^2 × longitudinal cross section (L))/2)
Tumor volumes were normalized by using the initial tumor volume and represented as the mean ± standard error of the mean (SEM). Additionally, the body weight of mice was measured every day and normalized daily for 9 days.

The conditions of series [1]: 20 mg/kg IV, 24 h after injection.
In the next series the test system is selected solid tumors. Further details: method as in PMID 12110316. To be noted: panel of tumoral cell lines ref 21; cited from earlier work.

Entries after “also recorded” stand apart in the source; their conditions may differ. Counter-ions that a name gives are not always drawn.

As for `COc1cc2cc(C(=O)N3CC(CCl)c4c3cc(O)c3ccoc43)[nH]c2c(OC)c1OC` (stereo not drawn) [TFA, tafuramycin A], in the series on 4T1 tumors, the “Tumor growth (tumor volume changes)” value is recorded as “slightly slowed down tumor growth; also recorded: significantly slowed growth”. In addition, in series [1], the Tumor/cardiac ratio stood at 0.49. The “Activity against selected solid tumors” value in the series with selected solid tumors was “activity in the nanomolar range”.

The record behind these values is publication PMC8227162, “Selective Targeting of Breast Cancer by Tafuramycin A Using SMA-Nanoassemblies” (Molecules, 2021).
